Test [1] concerns the target T1, Kappa opioid receptor (Homo sapiens, UniProt P41145). Put plainly: [35S]GTPγS binding functional assay, kappa.
Test [2] has as its target T2, ORL-1 receptor (Homo sapiens, UniProt P41146). Description: [35S]GTPγS binding functional assay, ORL-1. As to conditions: relative to Nociceptin control.
The target of test [3] is Delta2 opioid receptor (Homo sapiens, UniProt P41143). Put plainly: Delta2 binding assay ([3H]-naltrindole), Example 2. As to conditions: for pKi: read-out: Ki values Delta, [3H]-naltrindole, human recombinant cell line.
Test [4] has as its target T2, ORL-1 receptor. Description: ORL-1 binding assay ([3H]-nociceptin), Example 2. As to conditions: for pKi: read-out: Ki values ORL-1, [3H]-nociceptin, human recombinant cell line.
The target of test [5] is T1, Kappa opioid receptor. Put plainly: Kappa binding assay ([3H]-diprenorphine), Example 2. As to conditions: for pKi: read-out: Ki values Kappa, [3H]-diprenorphine, human recombinant cell line.
For test [6], the target named is Delta opioid receptor (Homo sapiens, UniProt P41143). Description: [35S]GTPγS binding functional assay, delta. As to conditions: for Functional GTPgS Delta Efficacy % Met-Enk: relative to Met-Enkephalin control.

By UniProt entry, the sequences of proteins in these tests, tags left out.
UniProt P41145, whole entry: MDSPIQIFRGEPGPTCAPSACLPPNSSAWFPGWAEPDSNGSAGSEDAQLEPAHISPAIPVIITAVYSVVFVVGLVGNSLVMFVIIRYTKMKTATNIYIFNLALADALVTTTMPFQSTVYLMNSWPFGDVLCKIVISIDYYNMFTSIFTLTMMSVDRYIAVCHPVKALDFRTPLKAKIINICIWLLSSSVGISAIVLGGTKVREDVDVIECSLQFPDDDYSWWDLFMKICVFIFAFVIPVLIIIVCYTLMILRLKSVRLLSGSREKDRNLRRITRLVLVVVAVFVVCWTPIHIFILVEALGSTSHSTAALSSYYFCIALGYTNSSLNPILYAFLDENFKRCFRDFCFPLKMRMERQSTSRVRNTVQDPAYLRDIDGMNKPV
UniProt P41146, whole entry: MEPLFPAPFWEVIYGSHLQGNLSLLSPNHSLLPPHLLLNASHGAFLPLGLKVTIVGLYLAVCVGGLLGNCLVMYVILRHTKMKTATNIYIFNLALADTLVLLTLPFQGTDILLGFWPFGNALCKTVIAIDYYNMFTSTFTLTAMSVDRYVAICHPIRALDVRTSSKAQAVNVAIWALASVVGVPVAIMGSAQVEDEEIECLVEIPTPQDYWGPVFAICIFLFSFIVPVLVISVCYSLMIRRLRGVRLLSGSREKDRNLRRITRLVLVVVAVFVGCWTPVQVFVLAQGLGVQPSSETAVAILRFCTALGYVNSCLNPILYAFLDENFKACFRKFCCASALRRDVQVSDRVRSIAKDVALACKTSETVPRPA
UniProt P41143, whole entry: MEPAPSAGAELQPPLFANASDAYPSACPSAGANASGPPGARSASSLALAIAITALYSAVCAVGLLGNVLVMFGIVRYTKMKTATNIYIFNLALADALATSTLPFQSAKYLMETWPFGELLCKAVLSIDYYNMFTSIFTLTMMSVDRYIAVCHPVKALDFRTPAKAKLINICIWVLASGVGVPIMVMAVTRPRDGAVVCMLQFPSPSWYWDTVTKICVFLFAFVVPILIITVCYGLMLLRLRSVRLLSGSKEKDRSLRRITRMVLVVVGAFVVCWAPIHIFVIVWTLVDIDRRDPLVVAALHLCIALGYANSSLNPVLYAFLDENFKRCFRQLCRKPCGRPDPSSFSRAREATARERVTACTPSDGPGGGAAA

pEC50, pKi: −log10 of the molar value.

`C=CCCN1CCC23c4c5ccc(O)c4O[C@H]2[C@@]2(OC)CCC3(C[C@@H]2[C@](C)(O)C(C)(C)C)[C@H]1C5`: the “functional character at the kappa receptor” value in test [1] is reported as “partial agonist”. Besides, the pEC50 in test [1] (read-out: Functional GTPgS Activity Kappa EC50, mean±S.E.M.) was 7.72; in test [6] (read-out: Functional GTPgS Activity Delta EC50, mean±S.E.M.), 7.49. Besides, in test [1] (relative to U-69,593 control), the “Functional GTPgS Kappa Efficacy % U-69,593” value is reported as 16 ± 1%. For the same compound, the “Functional GTPgS ORL-1 Efficacy % Noci” value in test [2] worked out at 19 ± 2%. The “activity at delta receptor less than buprenorphine” value in test [3] (binding, Table 1 data) is on record as 60 fold. The values for the pKi in test [3], in test [4] and in test [5] were 6.95, 5.55 and 7.81, respectively. Moreover, the “activity at orphanin receptor less than buprenorphine” value in test [4] (binding, Table 1 data) came out at 20 fold. The “activity at kappa receptor less than buprenorphine” value in test [5] (binding, Table 1 data) is given as 100 fold. For the same compound, the “functional character at the delta receptor” value in test [6] was “partial agonist”. The “Functional GTPgS Delta Efficacy % Met-Enk” value is reported as 47 ± 0% in test [6], 47 ± 0% in test [6] (listed as N-(3′-Butenyl) norbuprenorphine) and 47% in test [6] (listed as butenyl derivative).
Turning to `CO[C@]12CC[C@@]3(C[C@@H]1[C@](C)(O)C(C)(C)C)[C@H]1Cc4ccc(O)c5c4[C@@]3(CCN1)[C@H]2O5`, the values for the pKi in test [3], in test [4] and in test [5] were 6.07, 5.92 and 7.51, respectively.

These data come from patent publication US20050192308A1 (priority 2001, published 2005).
